{"source": "patent US20170189409A1", "about": "“MEDICAL USE” (Almirall, S.A., priority 2014, published 2017)", "tested_on": "autoantibody-mediated cutaneous lesions", "assay": "Immunization-induced mouse model of epidermolysis bullosa acquista (EBA)", "type": "in vivo, B6.SJL-H2s mice", "details": "6 week treatment; LAS191954 orally 3 mg/kg/day, methylprednisolone orally 20 mg/kg/day; versus vehicle", "method": "Induction of experimental EBA was performed as described in […] et al., J Immunol. 2013; 191:2978-2988. Briefly, 6-10 week B6.SJL-[…] mice were immunized with an emulsion of a recombinant protein encompassing the vWFA2 binding domain of mouse type VII collagen (COL7) in adjuvant (Titermax). After immunization, mice were weekly evaluated for the presence and extend of clinical disease, measured as percentage of body surface affected by skin lesions (erythema, blisters, erosions and crusts). […] Treatments were carried out over a 6-week period, and mice were evaluated for the extend of clinical disease (primary endpoint) weekly. […] For better comparability between experiments, the affected body surface area at weeks 1-6 was related to that at inclusion (set at 1). Body weight was monitored weekly during treatment."}
{"smiles": "C[C@H](Nc1ncnc(N)c1C#N)c1nn2ccc(C#N)c2c(=O)n1-c1ccccc1", "note": "[LAS191954, (S)-2-(1-(6-amino-5-cyanopyrimidin-4-ylamino)ethyl)-4-oxo-3-phenyl-3,4-dihydropyrrolo[1,2-f][1,2,4]triazine-5-carbonitrile]", "values": [{"measurement": "clinical severity (body surface area affected by skin lesions relative to score at inclusion)", "result": "progressively and significantly (p<0.001 for weeks 4, 5 and 6) reduced the clinical severity"}]}
